AlphaSeq binding of Ab-91 heavy chain variants to a spike HR2 peptide

From the AlphaSeq antibody data of Engelhart et al. 2022 (doi:10.1038/s41597-022-01779-4), copy in the FLAb collection.

Target peptide (SARS-CoV-2 spike, HR2 region): PDVDLGDISGINAS

Ab-91 is the parent antibody, in scFv form: VL, then a 15-residue (Gly4Ser)3 linker, then VH. The light chain is unchanged in all variants.
VL: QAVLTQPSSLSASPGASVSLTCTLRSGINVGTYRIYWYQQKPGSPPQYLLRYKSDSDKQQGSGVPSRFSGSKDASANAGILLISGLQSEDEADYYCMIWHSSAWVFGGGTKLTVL
VH: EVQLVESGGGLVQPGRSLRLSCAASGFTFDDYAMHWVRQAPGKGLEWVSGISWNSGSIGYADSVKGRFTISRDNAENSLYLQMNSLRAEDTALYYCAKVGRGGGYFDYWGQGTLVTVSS

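AAYL51 was designed without a model: most single CDR substitutions and a random sample of double and triple ones. The assay is AlphaSeq: two haploid yeast populations carry antibody and antigen on their surface. Binding brings cells together so that they mate, and sequencing counts the barcode pairs among the diploids. Scores were corrected for input abundance and mapped to Kd with protein pairs of known affinity run in the same pool. There are three technical replicates.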

Substitutions are numbered in sequence along the VH above, starting at 1 (not Kabat).
Scale: log10 of Kd in nM, estimated from mating counts; low values are strong binders.
"ND" means that the variant was in the library but no mating with the target was seen in that replicate; the authors take this as a sign of poor binding, and no number exists.
As a blank, each scFv also met three strains without target: over library AAYL51, 21% of these pairings were detected, typically at 4.54 and seldom below 3.26. Also given: how often the same scFv was detected with the empty control strains, with their mean in brackets.
In this assay the parent's reference entry averaged 1.86; its copy inside this library read 0.88.

changes	log10 Kd (nM) by replicate	signal with controls
N54F	ND 4.98 ND	1/9 (4.14)
T28E G56W G102A	ND 5.12 ND	1/9 (4.80)
D30I M34A G56E	4.03 ND ND	1/9 (5.07)
D31H S55K D107Q	5.03 ND ND	2/9 (4.00)
A33C I51P W53M	ND ND ND	0/9
S63W R101I D107W	ND ND ND	1/9 (4.49)
A33R I58A G103A	ND ND ND	4/9 (4.33)
I58A G59I G102M	ND ND ND	1/9 (3.67)
S57H S63G G102M	ND ND ND	1/9 (3.84)
V64D R101Q	ND 2.71 ND	1/9 (2.63)
F27N S57A D107E	4.00 ND ND	1/9 (3.55)
F27C F29N D107Q	ND ND ND	3/9 (4.26)
W53C S55F I58R	ND ND ND	0/9
F27S S55I S63H	ND ND 5.33	4/9 (4.72)
M34W Y60H F106R	ND ND ND	0/9
M34N I51K S52R	ND ND ND	0/9
A33P V99L D107A	ND 4.75 ND	0/9
Y32I V64N G104Q	ND ND 3.95	1/9 (4.53)
D30W R101T D107F	ND ND ND	0/9
Y60W V64W G103A	ND ND ND	0/9
F29H K65G	ND ND 4.22	0/9
S55G G56W S57F	4.86 5.18 ND	6/9 (4.59)
G26F F27T G50P	ND ND ND	0/9
D31A A33G D62G	ND ND ND	0/9
F27T S52T W53Y	4.50 6.14 ND	3/9 (4.41)
G26K H35Y G103I	ND ND ND	3/9 (3.95)
G56N I58M A61T	ND ND ND	0/9
G50L G56V V64N	ND ND ND	1/9 (5.17)
A33C S52D G104E	4.80 5.99 5.51	6/9 (5.10)
F27L S52N N54M	ND ND ND	4/9 (3.47)
H35Y R101E F106M	4.01 ND 5.33	5/9 (4.12)
H35S S57A R101H	4.82 4.93 4.69	3/9 (4.36)
S57L G100D	ND ND ND	0/9
G50C S63K Y105E	ND ND ND	2/9 (3.42)
G26F F29S S52K	ND ND ND	0/9
F27D A33R D62F	ND ND ND	1/9 (2.90)

From the list, the first 6 with no signal in any replicate:

changes	log10 Kd (nM) by replicate	signal with controls
A33C I51P W53M	ND ND ND	0/9
S63W R101I D107W	ND ND ND	1/9 (4.49)
A33R I58A G103A	ND ND ND	4/9 (4.33)
I58A G59I G102M	ND ND ND	1/9 (3.67)
S57H S63G G102M	ND ND ND	1/9 (3.84)
F27C F29N D107Q	ND ND ND	3/9 (4.26)